Experiment [1] deals with T1, human recombinant PAH (Homo sapiens, UniProt P00439).
T1 construct: expression vectors for full-length human PAH (UniProt entry P00439); made in house; host or cells: E. coli T7 Express (NEB) with pRARE2
T1 sequence (P00439 1-452): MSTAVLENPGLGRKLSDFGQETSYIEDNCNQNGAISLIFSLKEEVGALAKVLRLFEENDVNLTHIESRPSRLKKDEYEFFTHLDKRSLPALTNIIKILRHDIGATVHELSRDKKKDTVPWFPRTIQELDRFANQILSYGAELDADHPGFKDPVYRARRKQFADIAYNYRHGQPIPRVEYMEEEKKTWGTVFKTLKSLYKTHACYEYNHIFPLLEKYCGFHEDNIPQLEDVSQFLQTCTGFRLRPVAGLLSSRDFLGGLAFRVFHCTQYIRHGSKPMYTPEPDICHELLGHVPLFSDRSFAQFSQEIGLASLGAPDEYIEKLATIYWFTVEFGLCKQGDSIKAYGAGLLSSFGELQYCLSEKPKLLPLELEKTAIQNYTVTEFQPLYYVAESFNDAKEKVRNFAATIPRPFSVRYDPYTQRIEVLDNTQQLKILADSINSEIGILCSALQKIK
Description: PAH enzymatic activity assay (fluorescence, 96-well). Conditions: 100 nM. It counts as biochemical.

Experiment [2] addresses T2, human recombinant TPH1 (Homo sapiens, UniProt P17752).
T2 construct: Full-length human TPH1 and TPH2 (UniProt entries P17752 and Q8IWU9); MBP (N); made in house
T2 sequence (P17752 1-444): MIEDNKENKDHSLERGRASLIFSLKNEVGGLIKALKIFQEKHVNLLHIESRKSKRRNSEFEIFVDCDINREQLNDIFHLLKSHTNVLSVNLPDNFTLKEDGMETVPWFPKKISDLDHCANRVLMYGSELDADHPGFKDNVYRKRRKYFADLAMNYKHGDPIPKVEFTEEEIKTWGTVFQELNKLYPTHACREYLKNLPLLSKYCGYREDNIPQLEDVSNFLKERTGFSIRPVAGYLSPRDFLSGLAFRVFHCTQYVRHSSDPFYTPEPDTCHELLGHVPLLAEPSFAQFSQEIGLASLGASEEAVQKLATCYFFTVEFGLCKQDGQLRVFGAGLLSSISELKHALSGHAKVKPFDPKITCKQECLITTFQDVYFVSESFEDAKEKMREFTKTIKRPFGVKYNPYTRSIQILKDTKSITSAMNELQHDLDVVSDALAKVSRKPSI
Description: TPH1 enzymatic activity assay (fluorescence, 96-well). It counts as biochemical.

The text below walks through data of paper PMC12171880, “Selectivity and Safety Characterization of a Xanthine–Imidazothiazole Lead Structure: a Novel Tryptophan Hydroxylase Inhibitor of Peripheral Serotonin Synthesis” (ACS Pharmacology & Translational Science, 2025).

SMILES strings stand for the structures.

Take `CCOC(=O)[C@@H](N)Cc1ccc(-c2cc(O[C@H](c3ccc(Cl)cc3-n3ccc(C)n3)C(F)(F)F)nc(N)n2)cc1` [LX1606, Telotristat ethyl]: the “Mean PAH activity [%]” value in experiment [1] amounted to 93.78%. For the same compound, the “Mean TPH1 activity [%]” value in experiment [2] (3 nM) is on record as 105.40%; in experiment [2] (10 nM), 101.82%; in experiment [2] (30 nM), 103.86%; in experiment [2] (100 nM), 93.76%; in experiment [2] (300 nM), 94.76%; in experiment [2] (1 μM) it was 80.38%. Also, the “Mean TPH1 activity [%]” value turned out to be 4.22% in experiment [2] (3 μM) and 6.31% in experiment [2] (10 μM).
